Experiment: Metabolic stability of GLP-2 derivatives in vivo in pigs (terminal plasma elimination half-life T½)
Details: pig, sc, female LYD crossbred pigs, subcutaneous injection, 0.5 nmol/kg, plasma analysed by ELISA
Experimental: Metabolic stability of selected GLP-2 derivatives. The degradation of GLP-2 derivatives in vivo in pigs have been studied and T½ value determined for selected GLP-2 derivatives according to the present invention (T½: Terminal plasma elimination half-life) (Table 9).
All test substances were dissolved in 20 mM phosphate buffer pH 7.4.
Female LYD crossbred pigs weighing 50-75 kg. were used. All test substances were dosed 0.5 nmol/kg. The dosing volume was approx. 1 ml per animal.
Subcutaneous injections were given at the right side of the neck approximately 7 cm from the ear and 9 cm from the middle of the neck. Injections were given with a stopper on the needle, allowing 0.5 cm of the needle to be inserted.
Blood samples were drawn from an ear vein catheter. The catheter was rinsed with heparin 50 IE/ml in physiological saline. During sampling the first ml blood drawn was discarded. Blood samples were kept on ice for no longer than 20 min. before centrifugation (4° C., 4000 rpm, 10 min). After centrifugation plasma was isolated and transferred to Micronic-tubes in duplo. The plasma samples were analysed by ELISA.

half-life | Compound
16.2 h | CCCCCCCCCCCCCCCC(=O)N[C@@H](CCC(=O)NCCCC[C@H](NC(=O)[C@H](CC(N)=O)NC(=O)[C@H](CC(=O)O)NC(=O)[C@H](CC(C)C)NC(=O)[C@@H](NC(=O)[C@@H](NC(=O)[C@H](CC(N)=O)NC(=O)[C@H](CCSC)NC(=O)[C@H](CCC(=O)O)NC(=O)[C@H](CC(=O)O)NC(=O)[C@H](CO)NC(=O)[C@H](Cc1ccccc1)NC(=O)[C@H](CO)NC(=O)CNC(=O)[C@H](CCC(=O)O)NC(=O)[C@H](C)NC(=O)[C@@H](N)Cc1c[nH]cn1)[C@@H](C)O)[C@@H](C)CC)C(=O)N[C@@H](C)C(=O)N[C@@H](C)C(=O)N[C@@H](CCCNC(=N)N)C(=O)N[C@@H](CC(=O)O)C(=O)N[C@@H](Cc1ccccc1)C(=O)N[C@H](C(=O)N[C@@H](CC(N)=O)C(=O)N[C@@H](Cc1c[nH]c2ccccc12)C(=O)N[C@@H](CC(C)C)C(=O)N[C@H](C(=O)N[C@@H](CCC(N)=O)C(=O)N[C@H](C(=O)N[C@@H](CCCNC(=N)N)C(=O)N[C@H](C(=O)N[C@H](C(=O)N[C@@H](CCC(=O)O)C(=O)O)[C@@H](C)O)[C@@H](C)CC)[C@@H](C)O)[C@@H](C)CC)[C@@H](C)CC)C(=O)O
53.1 h | CCCCCCCCCCCCCCCC(=O)N[C@@H](CCC(=O)NCCCC[C@H](NC(=O)[C@H](CCSC)NC(=O)[C@H](CCC(=O)O)NC(=O)[C@H](CC(=O)O)NC(=O)[C@H](CO)NC(=O)[C@H](Cc1ccccc1)NC(=O)[C@H](CO)NC(=O)CNC(=O)[C@H](CCC(=O)O)NC(=O)[C@H](C)NC(=O)[C@@H](N)Cc1c[nH]cn1)C(=O)N[C@H](C(=O)N[C@H](C(=O)N[C@@H](CC(C)C)C(=O)N[C@@H](CC(=O)O)C(=O)N[C@@H](CC(N)=O)C(=O)N[C@@H](CC(C)C)C(=O)N[C@@H](C)C(=O)N[C@@H](C)C(=O)N[C@@H](CCCNC(=N)N)C(=O)N[C@@H](CC(=O)O)C(=O)N[C@@H](Cc1ccccc1)C(=O)N[C@H](C(=O)N[C@@H](CC(N)=O)C(=O)N[C@@H](Cc1c[nH]c2ccccc12)C(=O)N[C@@H](CC(C)C)C(=O)N[C@H](C(=O)N[C@@H](CCC(N)=O)C(=O)N[C@H](C(=O)N[C@@H](CCCNC(=N)N)C(=O)N[C@H](C(=O)N[C@H](C(=O)N[C@@H](CCC(=O)O)C(=O)O)[C@@H](C)O)[C@@H](C)CC)[C@@H](C)O)[C@@H](C)CC)[C@@H](C)CC)[C@@H](C)CC)[C@@H](C)O)C(=O)O
280 h | CCCCCCCCCCCCCCCC(=O)N[C@@H](CCC(=O)NCCCC[C@H](NC(=O)[C@H](Cc1ccccc1)NC(=O)[C@H](CO)NC(=O)CNC(=O)[C@H](CCC(=O)O)NC(=O)[C@H](C)NC(=O)[C@@H](N)Cc1c[nH]cn1)C(=O)N[C@@H](CC(=O)O)C(=O)N[C@@H](CCC(=O)O)C(=O)N[C@@H](CCSC)C(=O)N[C@@H](CC(N)=O)C(=O)N[C@H](C(=O)N[C@H](C(=O)N[C@@H](CC(C)C)C(=O)N[C@@H](CC(=O)O)C(=O)N[C@@H](CC(N)=O)C(=O)N[C@@H](CC(C)C)C(=O)N[C@@H](C)C(=O)N[C@@H](C)C(=O)N[C@@H](CCCNC(=N)N)C(=O)N[C@@H](CC(=O)O)C(=O)N[C@@H](Cc1ccccc1)C(=O)N[C@H](C(=O)N[C@@H](CC(N)=O)C(=O)N[C@@H](Cc1c[nH]c2ccccc12)C(=O)N[C@@H](CC(C)C)C(=O)N[C@H](C(=O)N[C@@H](CCC(N)=O)C(=O)N[C@H](C(=O)N[C@@H](CCCNC(=N)N)C(=O)N[C@H](C(=O)N[C@H](C(=O)N[C@@H](CCC(=O)O)C(=O)O)[C@@H](C)O)[C@@H](C)CC)[C@@H](C)O)[C@@H](C)CC)[C@@H](C)CC)[C@@H](C)CC)[C@@H](C)O)C(=O)O
29.4 h | CCCCCCCCCCCCCCCC(=O)N[C@@H](CCC(=O)NCCCC[C@H](NC(=O)[C@H](CC(N)=O)NC(=O)[C@H](CCSC)NC(=O)[C@H](CCC(=O)O)NC(=O)[C@H](CC(=O)O)NC(=O)[C@H](CO)NC(=O)[C@H](Cc1ccccc1)NC(=O)[C@H](CO)NC(=O)CNC(=O)[C@H](CCC(=O)O)NC(=O)[C@H](C)NC(=O)[C@@H](N)Cc1c[nH]cn1)C(=O)N[C@H](C(=O)N[C@@H](CC(C)C)C(=O)N[C@@H](CC(=O)O)C(=O)N[C@@H](CC(N)=O)C(=O)N[C@@H](CC(C)C)C(=O)N[C@@H](C)C(=O)N[C@@H](C)C(=O)N[C@@H](CCCNC(=N)N)C(=O)N[C@@H](CC(=O)O)C(=O)N[C@@H](Cc1ccccc1)C(=O)N[C@H](C(=O)N[C@@H](CC(N)=O)C(=O)N[C@@H](Cc1c[nH]c2ccccc12)C(=O)N[C@@H](CC(C)C)C(=O)N[C@H](C(=O)N[C@@H](CCC(N)=O)C(=O)N[C@H](C(=O)N[C@@H](CCCNC(=N)N)C(=O)N[C@H](C(=O)N[C@H](C(=O)N[C@@H](CCC(=O)O)C(=O)O)[C@@H](C)O)[C@@H](C)CC)[C@@H](C)O)[C@@H](C)CC)[C@@H](C)CC)[C@@H](C)CC)C(=O)O
8.5 h | CCCCCCCCCCCC(=O)NCCC(=O)NCCCC[C@H](NC(=O)[C@H](CC(N)=O)NC(=O)[C@H](CC(=O)O)NC(=O)[C@H](CC(C)C)NC(=O)[C@@H](NC(=O)[C@@H](NC(=O)[C@H](CC(N)=O)NC(=O)[C@H](CCSC)NC(=O)[C@H](CCC(=O)O)NC(=O)[C@H](CC(=O)O)NC(=O)[C@H](CO)NC(=O)[C@H](Cc1ccccc1)NC(=O)[C@H](CO)NC(=O)CNC(=O)[C@H](CC(=O)O)NC(=O)[C@H](C)NC(=O)[C@@H](N)Cc1c[nH]cn1)[C@@H](C)O)[C@@H](C)CC)C(=O)N[C@@H](C)C(=O)N[C@@H](C)C(=O)N[C@@H](CCCNC(=N)N)C(=O)N[C@@H](CC(=O)O)C(=O)N[C@@H](Cc1ccccc1)C(=O)N[C@H](C(=O)N[C@@H](CC(N)=O)C(=O)N[C@@H](Cc1c[nH]c2ccccc12)C(=O)N[C@@H](CC(C)C)C(=O)N[C@H](C(=O)N[C@@H](CCC(N)=O)C(=O)N[C@H](C(=O)N[C@@H](CCCNC(=N)N)C(=O)N[C@H](C(=O)N[C@H](C(=O)N[C@@H](CC(=O)O)C(=O)O)[C@@H](C)O)[C@@H](C)CC)[C@@H](C)O)[C@@H](C)CC)[C@@H](C)CC
2.3 h | CCCCCCCCCCCC(=O)NCCCC(=O)NCCCC[C@H](NC(=O)[C@H](CC(N)=O)NC(=O)[C@H](CC(=O)O)NC(=O)[C@H](CC(C)C)NC(=O)[C@@H](NC(=O)[C@@H](NC(=O)[C@H](CC(N)=O)NC(=O)[C@H](CCSC)NC(=O)[C@H](CCC(=O)O)NC(=O)[C@H](CC(=O)O)NC(=O)[C@H](CO)NC(=O)[C@H](Cc1ccccc1)NC(=O)[C@H](CO)NC(=O)CNC(=O)[C@H](CC(=O)O)NC(=O)[C@H](C)NC(=O)[C@@H](N)Cc1c[nH]cn1)[C@@H](C)O)[C@@H](C)CC)C(=O)N[C@@H](C)C(=O)N[C@@H](C)C(=O)N[C@@H](CCCNC(=N)N)C(=O)N[C@@H](CC(=O)O)C(=O)N[C@@H](Cc1ccccc1)C(=O)N[C@H](C(=O)N[C@@H](CC(N)=O)C(=O)N[C@@H](Cc1c[nH]c2ccccc12)C(=O)N[C@@H](CC(C)C)C(=O)N[C@H](C(=O)N[C@@H](CCC(N)=O)C(=O)N[C@H](C(=O)N[C@@H](CCCNC(=N)N)C(=O)N[C@H](C(=O)N[C@H](C(=O)N[C@@H](CC(=O)O)C(=O)O)[C@@H](C)O)[C@@H](C)CC)[C@@H](C)O)[C@@H](C)CC)[C@@H](C)CC
3.8 ± 0.6 h | CCCCCCCCCCCCCCCC(=O)NCCCC(=O)NCCCC[C@H](NC(=O)[C@H](CC(N)=O)NC(=O)[C@H](CC(=O)O)NC(=O)[C@H](CC(C)C)NC(=O)[C@@H](NC(=O)[C@@H](NC(=O)[C@H](CC(N)=O)NC(=O)[C@H](CCSC)NC(=O)[C@H](CCC(=O)O)NC(=O)[C@H](CC(=O)O)NC(=O)[C@H](CO)NC(=O)[C@H](Cc1ccccc1)NC(=O)[C@H](CO)NC(=O)CNC(=O)[C@H](CC(=O)O)NC(=O)[C@H](C)NC(=O)[C@@H](N)Cc1c[nH]cn1)[C@@H](C)O)[C@@H](C)CC)C(=O)N[C@@H](C)C(=O)N[C@@H](C)C(=O)N[C@@H](CCCNC(=N)N)C(=O)N[C@@H](CC(=O)O)C(=O)N[C@@H](Cc1ccccc1)C(=O)N[C@H](C(=O)N[C@@H](CC(N)=O)C(=O)N[C@@H](Cc1c[nH]c2ccccc12)C(=O)N[C@@H](CC(C)C)C(=O)N[C@H](C(=O)N[C@@H](CCC(N)=O)C(=O)N[C@H](C(=O)N[C@@H](CCCNC(=N)N)C(=O)N[C@H](C(=O)N[C@H](C(=O)N[C@@H](CC(=O)O)C(=O)O)[C@@H](C)O)[C@@H](C)CC)[C@@H](C)O)[C@@H](C)CC)[C@@H](C)CC
4.5 ± 2.4 h | CCCCCCCCCCCCCC(=O)NCCCC(=O)NCCCC[C@H](NC(=O)[C@H](CC(N)=O)NC(=O)[C@H](CC(=O)O)NC(=O)[C@H](CC(C)C)NC(=O)[C@@H](NC(=O)[C@@H](NC(=O)[C@H](CC(N)=O)NC(=O)[C@H](CCSC)NC(=O)[C@H](CCC(=O)O)NC(=O)[C@H](CC(=O)O)NC(=O)[C@H](CO)NC(=O)[C@H](Cc1ccccc1)NC(=O)[C@H](CO)NC(=O)CNC(=O)[C@H](CC(=O)O)NC(=O)[C@H](C)NC(=O)[C@@H](N)Cc1c[nH]cn1)[C@@H](C)O)[C@@H](C)CC)C(=O)N[C@@H](C)C(=O)N[C@@H](C)C(=O)N[C@@H](CCCNC(=N)N)C(=O)N[C@@H](CC(=O)O)C(=O)N[C@@H](Cc1ccccc1)C(=O)N[C@H](C(=O)N[C@@H](CC(N)=O)C(=O)N[C@@H](Cc1c[nH]c2ccccc12)C(=O)N[C@@H](CC(C)C)C(=O)N[C@H](C(=O)N[C@@H](CCC(N)=O)C(=O)N[C@H](C(=O)N[C@@H](CCCNC(=N)N)C(=O)N[C@H](C(=O)N[C@H](C(=O)N[C@@H](CC(=O)O)C(=O)O)[C@@H](C)O)[C@@H](C)CC)[C@@H](C)O)[C@@H](C)CC)[C@@H](C)CC

From patent US7411039B2, “GLP-2 compounds, formulations, and uses thereof” (Novo Nordisk A/S, priority 2002, dated 2008)
